# Assay results published in US7022663B2 (Yeda Research and Development Co., Ltd., priority 2000, dated 2006).
# Assays:
# [1] = enteric-coated tablets, buffer at pH 6.8, FIG. 3
# [2] = drug substance, lyophilized material
# [3] = tested on: proteolytic enzymes in the gastrointestinal track
# [4] = capsule formulations; Maillard reaction under accelerated storage conditions, yellowing of the granulate
# grafts = conditions: cited from earlier work
substance,measurement,setting,value
"L-glutamic acid polymer with L-alanine, L-lysine and L-tyrosine, acetate (salt) [Copolymer 1]",dissolution profiles of 5 mg and 50 mg tablets compared,[1],matching
same,solubility,[2],only slightly soluble
same,degradation by proteolytic enzymes,[3],easily degraded
same,compatibility with lactose monohydrate filler,[4],long-term incompatibility
same,cytotoxic activity toward grafts,grafts,completely abolished
